Laboratory results published in US10131692B2, “Vasopressin-2 receptor agonists” (Ferring B.V., priority 2013, dated 2018).

Molecular target: human V2 receptor (h V2R) (Homo sapiens (Human), UniProt P30518)
Assay: hV2 receptor agonist transcriptional reporter gene (luciferase) assay
Format: cell-based
Conditions: HEK-293 cells transiently transfected with hV2 receptor, dDAVP internal control

[1-deamino, 8-D-arginine]-vasopressin [Compound 42]
% Efficacy hV2-R: 100%
